The chains behind the UniProt entries cited, without tags or fusion partners. Residues count along the entry.
UniProt P00533, 25-1210: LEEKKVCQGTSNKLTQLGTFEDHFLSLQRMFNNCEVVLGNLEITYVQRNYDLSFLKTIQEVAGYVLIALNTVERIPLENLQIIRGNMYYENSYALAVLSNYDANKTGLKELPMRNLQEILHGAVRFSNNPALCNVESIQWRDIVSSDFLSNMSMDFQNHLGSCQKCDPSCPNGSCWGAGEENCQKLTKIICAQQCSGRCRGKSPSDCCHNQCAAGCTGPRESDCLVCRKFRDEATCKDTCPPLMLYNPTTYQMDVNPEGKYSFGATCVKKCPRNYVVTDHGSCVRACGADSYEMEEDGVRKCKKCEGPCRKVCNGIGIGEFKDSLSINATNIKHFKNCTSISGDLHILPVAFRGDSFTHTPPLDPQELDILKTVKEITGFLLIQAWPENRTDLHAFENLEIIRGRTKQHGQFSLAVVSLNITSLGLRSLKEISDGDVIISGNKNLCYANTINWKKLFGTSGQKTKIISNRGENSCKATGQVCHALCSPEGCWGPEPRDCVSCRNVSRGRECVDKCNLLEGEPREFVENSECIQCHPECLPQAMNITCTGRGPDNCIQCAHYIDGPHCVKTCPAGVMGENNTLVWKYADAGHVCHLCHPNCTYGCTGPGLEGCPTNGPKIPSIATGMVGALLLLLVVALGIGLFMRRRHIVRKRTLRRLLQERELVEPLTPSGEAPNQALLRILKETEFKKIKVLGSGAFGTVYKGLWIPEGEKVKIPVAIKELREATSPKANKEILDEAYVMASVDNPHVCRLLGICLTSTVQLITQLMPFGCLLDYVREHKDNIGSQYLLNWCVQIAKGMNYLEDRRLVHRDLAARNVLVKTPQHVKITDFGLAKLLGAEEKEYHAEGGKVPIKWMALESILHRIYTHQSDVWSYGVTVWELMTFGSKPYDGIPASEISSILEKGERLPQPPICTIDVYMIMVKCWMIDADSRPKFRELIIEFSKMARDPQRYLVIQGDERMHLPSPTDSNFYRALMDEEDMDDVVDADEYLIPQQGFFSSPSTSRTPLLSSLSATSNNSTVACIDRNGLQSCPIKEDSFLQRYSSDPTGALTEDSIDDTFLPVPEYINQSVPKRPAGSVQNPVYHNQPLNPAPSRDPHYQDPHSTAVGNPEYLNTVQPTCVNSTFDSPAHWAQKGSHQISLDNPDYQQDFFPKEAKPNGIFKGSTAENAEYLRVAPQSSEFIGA

According to US9371292B2, “Quinazoline derivative, preparation method therefor, intermediate, composition and application thereof” (SHANGHAI PHARMACEUTICALS HOLDINGS CO., LTD., priority 2011, dated 2016):

How the values were obtained:
A431 cell = experiment: Proliferation inhibition, A431 cells (CellTiter-Glo); assay type: cell-based; details: Homo sapiens, A-431, 48 hours
Description: (§1) This example is to determine the proliferation inhibitory activity against wide type of high expression cell lines A431 of EGFR and mutant cell lines NCI-H1975^L858RT790M, the proliferation inhibitory activity in cell-based level of compound is expressed by IC50. The test method is as follows: both cell lines are purchased from American type culture collection (ATCC). The cells are seeded in a white and opaque 384-well culture plate with a proper concentration (A431: 20000 cells/ml medium; H1975: 15000 cells/ml medium), cultured at 37° C. with 5% CO2 for 24 hrs, a series of medicine with gradient concentration is added, generally 10 concentrations, cultured for another 48 hours under the previous conditions. The assays of the proliferation inhibitory activity against the A431 and H1975 cell of the test compounds are performed by the CellTiter-Glo Luminescent Cell Viability Assay and calculate the proliferation inhibitory activity of compound with different concentrations. CellTiter-Glo Luminescent Cell Viability Assay is purchased from Promega. Fit the data of proliferation inhibitory activity against A431 and H1975 of compounds with different concentrations with 4-parameter equation.

[1] = system: NCI-H1975 L858R T790M cell; experiment: Proliferation inhibition, H1975 cells (CellTiter-Glo); assay type: cell-based; details: Homo sapiens, 48 hours
Description: as §1

EGFR tyrosine kinase = target: T1, EGFR tyrosine kinase (Homo sapiens, UniProt P00533); experiment: HTRF assay, inhibition of EGFR tyrosine kinase; assay type: biochemical; details: HTRF method
T1 construct: purchased Sigma Aldrich
Description: The activity of inhibitory against the kinase of the test compound is expressed by IC50. The assays are performed by Homogeneous time-resolved fluorescence (HTRF) method which is as follows: a series of synthesized analogues with gradient concentration are incubated for 5 minutes in enzymatic solution with specific concentration (for EGFR) at room temperature. Then proper amount of substrate and ATP are added into the reaction mixture to start the enzyme reaction. The assays of the specific concentration of compound is measured by Flexstation III of Molecular device company after the stop buffer and detecting liquid are added to the enzyme reaction system and hatch at room temperature for 1 hour. And the activity of inhibitory against the kinase of the test compound with different concentration will be calculated, then according to the 4-parameter equation, fit the inhibitory activity of the test compound with different concentration to get the IC50. EGFR is purchased from Sigma Aldrich. The HTRF KinEASE-TK is purchased from Cisbio Bioassays. ATP is purchased from Sigma Aldrich.

Structure (SMILES) | IC50 (A431 cell) [nM] | IC50 [1] [nM] | IC50 (EGFR tyrosine kinase) [nM]
CCOc1cc2ncnc(Nc3ccc(OCc4ccccn4)c(Cl)c3)c2cc1NC(=O)/C(F)=C\CN(C)C [Compound 19-2, (E)-N-(4-((3-chloro-4-(pyridin-2-ylmethoxy)phenyl)amino)-7-ethoxyquinazolin-6-yl)-4-(dimethylamino)-2-fluorobut-2-enamide] | 980 | – | –
COc1cc2ncnc(Nc3ccc(F)c(Cl)c3)c2cc1NC(=O)/C(F)=C/CN1CCCCC1 [Compound 8-1, (Z)—N-(4-((3-chloro-4-fluorophenyl)amino)-7-methoxyquinazolin-6-yl)-2-fluoro-4-(piperidin-1-yl)but-2-enamide] | 680 | – | –
CCOc1cc2ncnc(Nc3ccc(OCc4ccccn4)c(Cl)c3)c2cc1NC(=O)/C(F)=C/CN(C)C [Compound 19-1, (Z)-N-(4-((3-chloro-4-(pyridin-2-ylmethoxy)phenyl)amino)-7-ethoxyquinazolin-6-yl)-4-(dimethylamino)-2-fluorobut-2-enamide] | 980 | 640 | –
COc1cc2ncnc(Nc3ccc(F)c(Cl)c3)c2cc1NC(=O)/C(F)=C\CN1CCCCC1 [Compound 8-2, (E)-N-(4-((3-chloro-4-fluorophenyl)amino)-7-methoxyquinazolin-6-yl)-2-fluoro-4-(piperidin-1-yl)but-2-enamide] | – | 760 | –
O=C(Nc1cc2c(Nc3ccc(F)c(Cl)c3)ncnc2cc1O[C@H]1CCOC1)/C(F)=C\CN1CCOCC1 [Compound 20-2, (S,E)-N-(4-((3-chloro-4-fluorophenyl)amino)-7-((tetrahydrofuran-3-yl)oxy)quinazolin-6-yl)-2-fluoro-4-morpholinobut-2-enamide] | – | – | 0.26
COc1cc2ncnc(Nc3ccc(F)c(Cl)c3)c2cc1NC(=O)/C(F)=C/CN(C)C [Compound 2-1, (Z)—N-(4-((3-chloro-4-fluorophenyl)amino)-7-methoxyquinazolin-6-yl)-4-(dimethylamino)-2-fluorobut-2-enamide] | 550 | 410 | –
O=C(Nc1cc2c(Nc3ccc(F)c(Cl)c3)ncnc2cc1O[C@H]1CCOC1)/C(F)=C/CN1CCOCC1 [Compound 20-1, (S,Z)-N-(4-((3-chloro-4-fluorophenyl)amino)-7-((tetrahydrofuran-3-yl)oxy)quinazolin-6-yl)-2-fluoro-4-morpholinobut-2-enamide] | – | – | 1
